The target in test [1] is Opioid receptors; mu/kappa/delta (Homo sapiens, UniProt P41145+P41143+P35372). As to the kind of experiment: Inhibition of total opioid receptor by displacing 0.5 nM [3H]bremazocine in guinea pig brain membrane.
Test [2] deals with Kappa-type opioid receptor (Cavia porcellus, UniProt P41144). Description: Inhibition of opioid receptor kappa by displacing 0.5 nM [3H]bremazocine in guinea pig brain membrane.
Another test addresses Mu-type opioid receptor (Cavia porcellus, UniProt P97266). As to the kind of experiment: Inhibition of opioid receptor mu by displacing 1 nM [3H]DAGO in guinea pig brain membrane.

Chains of the proteins cited; added tags and fusions are not shown.
UniProt P41145, whole entry: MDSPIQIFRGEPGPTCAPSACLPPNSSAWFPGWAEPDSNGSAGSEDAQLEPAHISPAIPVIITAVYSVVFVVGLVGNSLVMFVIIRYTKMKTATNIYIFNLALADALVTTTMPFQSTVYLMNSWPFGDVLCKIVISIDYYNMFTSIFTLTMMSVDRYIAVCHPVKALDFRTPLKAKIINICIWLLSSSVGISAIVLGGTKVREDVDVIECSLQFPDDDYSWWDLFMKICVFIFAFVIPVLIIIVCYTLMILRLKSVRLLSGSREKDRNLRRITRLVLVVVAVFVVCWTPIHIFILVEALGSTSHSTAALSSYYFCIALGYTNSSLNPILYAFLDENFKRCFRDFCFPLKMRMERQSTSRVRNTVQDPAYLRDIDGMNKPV
UniProt P41143, whole entry: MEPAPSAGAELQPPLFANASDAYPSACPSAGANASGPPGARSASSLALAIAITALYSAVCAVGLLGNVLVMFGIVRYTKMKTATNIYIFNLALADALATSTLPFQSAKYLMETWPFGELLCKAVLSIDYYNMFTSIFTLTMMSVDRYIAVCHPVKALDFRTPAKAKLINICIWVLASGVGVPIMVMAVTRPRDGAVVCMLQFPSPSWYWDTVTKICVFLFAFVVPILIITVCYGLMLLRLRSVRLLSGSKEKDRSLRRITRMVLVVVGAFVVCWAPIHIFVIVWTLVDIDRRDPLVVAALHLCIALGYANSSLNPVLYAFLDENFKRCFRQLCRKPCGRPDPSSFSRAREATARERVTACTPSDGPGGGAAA
UniProt P35372, whole entry: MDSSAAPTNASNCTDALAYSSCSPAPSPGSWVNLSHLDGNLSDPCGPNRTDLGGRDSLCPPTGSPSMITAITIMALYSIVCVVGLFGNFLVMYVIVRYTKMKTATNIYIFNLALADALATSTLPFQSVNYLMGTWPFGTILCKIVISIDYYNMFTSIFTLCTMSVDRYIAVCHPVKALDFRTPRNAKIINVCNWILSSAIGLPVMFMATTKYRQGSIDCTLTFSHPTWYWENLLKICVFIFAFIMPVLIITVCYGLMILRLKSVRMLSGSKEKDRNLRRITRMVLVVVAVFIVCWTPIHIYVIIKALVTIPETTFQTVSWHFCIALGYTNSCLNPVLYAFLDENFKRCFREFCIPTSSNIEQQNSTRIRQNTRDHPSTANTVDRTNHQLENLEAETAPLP
UniProt P41144, whole entry: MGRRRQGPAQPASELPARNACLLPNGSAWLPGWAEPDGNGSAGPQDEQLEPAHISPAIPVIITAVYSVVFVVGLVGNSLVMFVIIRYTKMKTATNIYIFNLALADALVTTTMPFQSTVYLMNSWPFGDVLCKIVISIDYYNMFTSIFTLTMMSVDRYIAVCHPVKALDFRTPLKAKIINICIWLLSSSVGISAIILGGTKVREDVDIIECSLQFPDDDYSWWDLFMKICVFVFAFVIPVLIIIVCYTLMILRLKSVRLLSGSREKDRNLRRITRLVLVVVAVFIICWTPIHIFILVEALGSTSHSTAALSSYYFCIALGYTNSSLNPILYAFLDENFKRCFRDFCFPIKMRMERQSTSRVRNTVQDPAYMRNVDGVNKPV
UniProt P97266, whole entry: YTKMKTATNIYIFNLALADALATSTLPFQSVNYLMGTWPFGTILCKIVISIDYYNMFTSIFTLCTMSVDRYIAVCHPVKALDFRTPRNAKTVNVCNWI

Structures are written as SMILES. pIC50: −log10 of the molar value.

Compound `C=C(COc1ccc2c3c1O[C@H]1[C@@]4(OC)CC[C@@]5(C[C@@H]4C(C)(C)O)[C@@H](C2)N(CC2CC2)CC[C@]315)C(=O)OC` [listing 1 of 2 here] showed a pIC50 in test [1] of 8.66.

Take `C=C(COc1ccc2c3c1O[C@H]1[C@@]4(OC)CC[C@@]5(C[C@@H]4C(C)(C)O)[C@@H](C2)N(CC2CC2)CC[C@]315)C(=O)OC` [listing 2 of 2 here]: the results for the pIC50 (in test [2]; on Mu-type opioid receptor) were 8.44 and 9.00, respectively.
